These results are taken from publication PMC11017388 (ACS Medicinal Chemistry Letters, 2024).

Read-outs that look alike come from different tables or passages of the source.

For the test, the target named is Thrombin (Homo sapiens, UniProt P00734). The experiment in a line: Time-dependent potency determination against thrombin. Conditions: read-out: Thrombin IC50.

Consider “D-Phe-Pro-Arg-chloromethylketone [reference compound]”, for which the IC50 reads like this: (1 min preincubation) 3550 nM; (10 min preincubation) 981 nM; (60 min preincubation) 187 nM.
